B1: Tyrosine-protein kinase ABL1, residues 64 to 120; numbered along this chain, P00519 (parent)
chain: NLFVALYDFVASGDNTLSITKGEKLRVLGYNHNGEWCEAQTKNGQGWVPSNYITPVN

Variants of: B1
Experiment: abundance fitness (aPCA) (normalised: wild type 0, dead -1); higher = more abundant; growth selection in yeast, the domain comes from the species named
Conditions: Homo sapiens

Abundance fitness: each site, then its substitutions
G34: N 0.263, Q 0.102, R 0.161, S -0.041, T -0.115, W -0.279, Y -0.196
E35: A -0.191, G -0.098, H -0.502, I 0.327, K -0.013, L -0.101, M -0.256, N -0.496, P -0.182, Q -0.034, R -0.117, T -0.113, V -0.207, Y -0.516
W36: A -0.19, C -0.47, D -0.257, E -0.123, F 0.035, G -0.784, I -0.385, L -0.059, M 0.124, P -1.07, Q -0.208, R -0.094, S 0.053, T -0.515, V -0.262, Y 0.212
C37: Y -0.041
E38: A -0.427, C -0.286, D 0.125, F -0.16, G -0.411, H -0.116, I -0.266, K 0.097, L -0.208, M -0.126, N -0.147, Q -0.291, R -0.233, S -0.058, T -0.194, V -0.21, W -0.5, Y -0.334
A39: C -0.435, F -0.494, G 0.027, I -0.243, L -0.11, M -0.402, Q -1.1, R -0.875, S -0.28, T -0.003, V 0.024, W -0.83
Q40: A -0.018, C -0.086, D -0.341, E -0.199, F -0.108, G -0.213, H 0.038, I -0.259, K 0.215, L 0.013, M 0.063, N 0.025, P -0.917, R 0.091, S 0.06, T -0.007, V 0.059, W -0.104, Y 0.155
T41: A -0.308, C -0.022, F -0.22, G 0.096, H -0.038, I -0.327, K -0.289, L -0.47, M -0.312, P -0.842, Q -0.712, R -0.272, S 0.159, V -0.199, W -0.271, Y -0.201
K42: A -0.016, C -0.072, D 0.243, E 0.153, F -0.26, G 0.107, L -0.126, M -0.166, N -0.256, P -0.183, Q -0.001, R 0.048, S -0.11, T -0.09, V -0.025, W -0.216, Y 0.055
N43: A 0.06, C -0.334, D 0.037, E -0.142, F -0.524, G 0.128, H -0.136, I 0.005, K 0.118, L -0.003, M -0.115, P -0.881, Q 0.096, R -0.016, S 0.146, T -0.145, V 0.007, Y -0.232
G44: A -0.117, D -0.285, E -0.195, F -0.219, K -0.056, L -0.524, M -0.265, P -0.852, R -0.191, S -0.065, T -0.531, V -0.423, W -0.032, Y -0.264
Q45: A 0.202, C -0.07, D -0.196, E -0.213, F -0.015, G -0.286, H 0.043, I -0.445, K 0.195, L -0.013, N -0.362, P -0.397, R -0.167, S 0.063, V -0.094
